p53 reactivation: mutant p53 re-activation in reporter cells; H1299 p53-A138V BP100-luciferase reporter, luminescence, 24 h; Potency, µM (doses to about 92.2 µM), for the others: at the top dose activity change, positive = activation, usual class: activators; AID 504706; 320,000 compounds, 0.063% hits; note: potency is the fitted concentration of half-maximal effect; % of control where 0% means no effect; nearly all actives have a fitted effect of over 45% in size
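H1299 (p53-null), stable ts p53-A138V + BP100-Luc; 1000 cells/well, Opti-MEM/10% FBS; cpd 4 pt, 1:5; 24 h, 37 deg C, 5% CO2; detection reagent 10 min RT; luminescence.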
Nrf2 inh: inhibitors of Nrf2 signaling; A549 ARE-Fluc reporter, luciferase luminescence, 18-24 h; Potency, µM (doses to about 46 µM), inactives show top-dose activity change, negative = inhibition, most hits filed as inhibitors; 360,000 compounds, 2.1% hits; note: potency is the fitted concentration of half-maximal effect; % is set by controls: 0 for no effect and ±100 for the full control effect; nearly all actives have a fitted effect of over 60% in size
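A549 ARE_Fluc cells, 5000/well, 5% FBS OPTI-MEM; compounds in dose-response, 18-24 h at 37 °C/5% CO2; CellTiter-Fluor viability read (Ex 405/Em 525), then BugLite luciferase luminescence = Nrf2 activity.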
A549 tox: counter-screen for Nrf2 inhibitors: cytotoxicity in A549 cells; Potency, µM (highest dose often 46 µM), inactives show at the top dose activity change, negative = cytotoxicity, actives largely listed as inhibitors; AID 504648; A549 ARE-Fluc cells, CellTiter-Fluor viability, 18-24 h; 390,000 compounds, 0.16% hits; note: potency is the fitted concentration of half-maximal effect; % is set by controls: 0 for no effect and ±100 for the full control effect
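A549 ARE-Fluc cells in 5% FBS OPTI-MEM, 5000 cells/well, rested 2 h then exposed to compounds in concentration-response for 18-24 h at 37 °C. Viability by CellTiter-Fluor fluorescence (Ex 405/Em 525) after 30 min; luciferase luminescence (BugLite, 15 min, RT) read afterwards.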
ClpP mod: qHTS Assay for Activators of ClpP; purified B. subtilis ClpP, FRET peptide cleavage, 20 min; ATP-dependent Clp protease proteolytic subunit (Bacillus subtilis (strain 168)), P80244; Potency, µM (doses to about 57.5 µM), for the others: at the highest dose activity change, negative = active; 340,000 compounds, 1.9% hits; active = well fitted falling curve with a large enough effect; inconclusive = small, poorly fitted or top-dose-only effect; inactive = no such curve, though single readings can be large or run the other way; note: potency is the fitted concentration of half-maximal effect; the source files actives as falling curves though it sought activators and does not explain the sign; nearly all actives have a fitted effect of over 65% in size
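ClpP 10 microg/mL final, pH 8 Tris/KCl buffer with BSA, glycerol, Tween-20; compound pinned in; FRET-FV substrate; RT 20 min; Ex320/Em430; ΔFRET vs ADEP 5.8 microM, DMSO, no enzyme.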
Nrf2 activator: activates Nrf2 signaling. AREc32 ARE-luciferase reporter (MCF7-derived line), luminescence, 24 h. Potency, µM (top dose mostly 46.1 µM), inactives show at the top dose activation, most hits filed as activators. 410,000 compounds, 0.31% hits. AID 624171; note: potency is the fitted concentration of half-maximal effect; % of control where 0% means no effect; nearly all actives have a fitted effect of over 65% in size
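Luminescent ARE reporter assay in AREc32_Fluc cells: overnight plating at 37 deg C, 24 hr compound incubation, Steady-Glo added, 30 min RT before reading.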
miR-21 reporter: raises the signal of a miR-21 reporter | HeLa miR-21 FLuc reporter, luciferase, 48 h | Potency, µM (doses to about 38.3 µM), for the others: at the highest dose reporter change, positive = more light | 340,000 tested, under 10 active | AID 2288; active = well fitted rising curve with a large enough effect; inconclusive = small, poorly fitted or top-dose-only effect; inactive = no such curve, though single readings can be large or run the other way;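 also: % of control where 0% means no effect; miR-21 action dims this reporter so a rising signal means less miR-21 action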
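HeLa miR-21-FLuc reporter line, endogenous miR-21; 2000 cells/well in DMEM/10% FBS; compound titration up to ~40uM final, 48 h, 37 degree Celsius; luciferase detection reagent, 15 min lysis, CCD luminescence.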
* = called active by the depositor; ? = inconclusive; . = no result given. This is a sample that favours compounds with a hit; in the whole collection about 3.7% have one here. Unless noted, calls come from the whole dose curve; as a rule, active = well fitted curve in the direction sought with a large enough effect; inconclusive = small, poorly fitted or top-dose-only effect, or another doubt; inactive = no such curve, though single readings can be large; an effect the other way counts as inactive or inconclusive.

Abbreviations: A = p53 reactivation; B = Nrf2 inh; C = A549 tox; D = ClpP mod; E = Nrf2 activator; F = miR-21 reporter
[1] COC(=O)c1ccccc1NC(=O)N1CCCC1
  A = -7% | B = . | C = -4% | D = 16µM* | E = 0% | F = 0%
[2] CCc1ccccc1NC(=O)NC1CCCCC1
  A = 11% | B = . | C = 6% | D = 3.2µM* | E = 0% | F = -3%
[3] CCc1cccc(CC)c1NC(=O)NC1CCCCC1
  A = 2% | B = 17% | C = 0% | D = -13% | E = 0% | F = -2%
[4] COC(=O)c1ccccc1NC(=O)Oc1ccc(C(C)C)cc1
  A = -6% | B = 7% | C = -7% | D = 32µM* | E = 0% | F = -2%
[5] O=C(Nc1c(C(=O)O)[nH]c2ccccc12)NC1CCCCC1
  A = 2% | B = 9% | C = 0% | D = 7.9µM* | E = 11% | F = 1%
[6] Cn1c(=O)c2c(ncn2CC(=O)OCC(=O)Nc2cccc(C#N)c2)n(C)c1=O
  A = . | B = . | C = . | D = -2% | E = -1% | F = .
[7] COC(=O)c1ccccc1NC(=O)NC1CC1
  A = -1% | B = -2% | C = 13% | D = -6% | E = 0% | F = -2%
[8] CCCN1CCC(NC(=O)Nc2ccccc2C(=O)OC)CC1
  A = 0% | B = 2% | C = 26% | D = 28µM* | E = -1% | F = -8%
[9] Cc1ccc(-c2nc3cccnc3o2)cc1NC(=O)COc1ccc(Cl)cc1C
  A = 13% | B = ? | C = -3% | D = ? | E = 0% | F = -8%
[10] CCc1ccc(OCC(=O)Nc2cc(-c3nc4cc(C)ccc4o3)ccc2C)cc1
  A = . | B = ? | C = 0% | D = 4µM* | E = 1% | F = -31%

The list continues:
Abbreviations: A = p53 reactivation; B = Nrf2 inh; C = A549 tox; D = ClpP mod; E = Nrf2 activator; F = miR-21 reporter
[11] Cc1ccc(-c2nc3ncccc3o2)cc1NC(=O)CC(C)C
  A = 1% | B = 2% | C = -13% | D = 11µM* | E = 0% | F = 0%
[12] Cc1ccc(-c2nc3cccnc3o2)cc1NC(=O)COc1ccc(C(C)(C)C)cc1
  A = -1% | B = . | C = -27% | D = 28µM* | E = -3% | F = ?
[13] Cc1cc(C)cc(OCC(=O)Nc2ccc(-c3nc4ncccc4o3)cc2C)c1
  A = . | B = . | C = -5% | D = ? | E = -1% | F = ?
[14] Cc1ccc(-c2nc3ncccc3o2)cc1NC(=O)COc1ccccc1
  A = 1% | B = ? | C = 5% | D = 32µM* | E = 0% | F = -1%
[15] CCOC(=O)c1[nH]c(C)c(CCC(=O)Nc2cc(Cl)ccc2C)c1C
  A = . | B = . | C = -15% | D = -2% | E = 0% | F = -2%
[16] Cc1nn(C2CCS(=O)(=O)C2)c(Cl)c1/C=C/C(=O)OCC(=O)c1c[nH]c2ccccc12 (stereo not given)
  A = -16% | B = ? | C = ? | D = 3% | E = 10% | F = 28%
[17] Cc1nn(C2CCS(=O)(=O)C2)c(Cl)c1/C=C/C(=O)OCC(=O)c1cc(C)n(-c2ccc(F)cc2)c1C (stereo not given)
  A = 1% | B = 21µM* | C = 10% | D = -3% | E = 0% | F = 21%
[18] CCOc1ccccc1NC(=O)C(NS(=O)(=O)c1cccc2nsnc12)c1ccccc1 (stereo not given)
  A = . | B = . | C = 2% | D = -4% | E = 0% | F = 1%
[19] Cc1ccc(NS(=O)(=O)c2cc3c(cc2Cl)CCC(=O)N3)cc1C
  A = . | B = -21% | C = 1% | D = . | E = . | F = .
[20] O=C1N[C@@H](Cc2ccccc2)COC(=O)[C@H](Cc2ccc(F)cc2)CC/C=C/C[C@H]1CC(=O)N(CCO)Cc1ccccc1
  A = 14% | B = 23µM* | C = -26% | D = -2% | E = -3% | F = .

Continued.
Abbreviations: A = p53 reactivation; B = Nrf2 inh; C = A549 tox; D = ClpP mod; E = Nrf2 activator; F = miR-21 reporter
[21] O=C1NC[C@@H](c2ccccc2)OC(=O)[C@H](Cc2ccc(F)cc2)C/C=C\C[C@@H]1CC(=O)N(CCO)Cc1ccccc1
  A = -3% | B = 26µM* | C = ? | D = -2% | E = 10% | F = .
[22] O=C1N[C@@H](Cc2c[nH]c3ccccc23)COC(=O)[C@@H](Cc2ccc(F)cc2)CC/C=C/C[C@@H]1CC(=O)N(CCO)Cc1ccccc1
  A = 14% | B = ? | C = ? | D = -2% | E = -1% | F = .
[23] O=C1N[C@@H](Cc2ccccc2)COC(=O)[C@H](Cc2ccc(F)cc2)CC/C=C/C[C@@H]1CC(=O)N(CCO)Cc1ccccc1
  A = 4% | B = -29% | C = -5% | D = 2% | E = 4% | F = .
[24] O=C1N[C@@H](Cc2c[nH]c3ccccc23)COC(=O)[C@H](Cc2ccc(F)cc2)C/C=C\C[C@H]1CC(=O)N(CCO)Cc1ccccc1
  A = -3% | B = 26µM* | C = ? | D = -3% | E = -3% | F = .
[25] O=C1NC[C@H](c2ccccc2)OC(=O)[C@H](Cc2ccc(F)cc2)C/C=C\C[C@@H]1CC(=O)N(CCO)Cc1ccccc1
  A = -4% | B = ? | C = -10% | D = -1% | E = -1% | F = .
[26] CC(=O)c1ccc(Nc2ccc3cc(S(=O)(=O)N4CCCC4)ccc3n2)cc1
  A = . | B = -8% | C = -4% | D = 4% | E = 13% | F = 9%
[27] Cn1cc2ccc(-c3ccc4ncnc(NCc5cccs5)c4c3)cc2n1
  A = . | B = ? | C = -4% | D = . | E = . | F = .
[28] Nc1ccccc1C(=O)NC(=O)Nc1ccc(Oc2ncc(Br)cn2)c(Cl)c1
  A = . | B = 14% | C = -19% | D = 22µM* | E = 0% | F = .
[29] Cc1cc(NC(=O)NC(=O)c2ccccc2NC(=O)CN)ccc1Oc1ncc(Br)cn1
  A = . | B = 9% | C = -10% | D = 18µM* | E = 1% | F = .
[30] COC(=O)c1ccc(NC(=O)c2nc(S(=O)(=O)Cc3ccccc3F)ncc2Cl)cc1
  A = . | B = . | C = . | D = 7% | E = . | F = .

Other structures follow:
Abbreviations: A = p53 reactivation; B = Nrf2 inh; C = A549 tox; D = ClpP mod; E = Nrf2 activator; F = miR-21 reporter
[31] CSc1cc2c(s1)c1cnn(Cc3cccc(O)c3)c(=O)c1n2C
  A = . | B = ? | C = -20% | D = . | E = . | F = .
[32] O=C(CSc1nc2c([nH]c3ccccc32)c(=O)n1-c1ccc(F)cc1)NCC1CCCO1 (stereo not given)
  A = . | B = . | C = -17% | D = 22µM* | E = 1% | F = -1%
[33] O=C(Nc1ccc(OC(F)F)c(Cl)c1)Nc1ccc2c(c1)OCO2
  A = 18% | B = ? | C = -25% | D = 1% | E = -1% | F = 3%
[34] O=C(Nc1ccc([N+](=O)[O-])cc1)Nc1ccc(OC(F)F)c(Cl)c1
  A = -4% | B = 21µM* | C = ? | D = -1% | E = -1% | F = ?
[35] COC(=O)c1ccc(NC(=O)c2cccc(N3C(=O)C4C5C=CC(C6CC56)C4C3=O)c2)cc1 (stereo not given)
  A = -3% | B = 21µM* | C = ? | D = 1% | E = 0% | F = -14%
[36] COc1ccc(OC)c(NC(=O)c2cccc(N3C(=O)C4C5C=CC(C6CC56)C4C3=O)c2)c1 (stereo not given)
  A = -2% | B = 0% | C = 1% | D = 2% | E = 0% | F = 11%
[37] O=C(Nc1ccccc1)c1cccc(N2C(=O)C3C4C=CC(C5CC45)C3C2=O)c1 (stereo not given)
  A = 1% | B = 21µM* | C = -11% | D = . | E = 0% | F = 14%
[38] O=C(Nc1ccc(F)cc1)c1cccc(N2C(=O)C3C4C=CC(C4)C3C2=O)c1 (stereo not given)
  A = -6% | B = -21% | C = -6% | D = 0% | E = 0% | F = -1%
[39] O=C(Nc1ccccc1)c1cccc(N2C(=O)C3C4C=CC(C4)C3C2=O)c1 (stereo not given)
  A = 10% | B = -16% | C = -3% | D = 1% | E = 1% | F = -5%
[40] O=C(Nc1ccc(F)cc1)c1cccc(N2C(=O)C3C4C=CC(C5CC45)C3C2=O)c1 (stereo not given)
  A = 3% | B = 15µM* | C = -12% | D = 0% | E = 0% | F = 19%

Looked up by compound from the list above (4):
Abbreviations: A = p53 reactivation; B = Nrf2 inh; C = A549 tox; D = ClpP mod; E = Nrf2 activator; F = miR-21 reporter
[39] O=C(Nc1ccccc1)c1cccc(N2C(=O)C3C4C=CC(C4)C3C2=O)c1 (stereo not given)
  A = 10% | B = -16% | C = -3% | D = 1% | E = 1% | F = -5%
[40] O=C(Nc1ccc(F)cc1)c1cccc(N2C(=O)C3C4C=CC(C5CC45)C3C2=O)c1 (stereo not given)
  A = 3% | B = 15µM* | C = -12% | D = 0% | E = 0% | F = 19%
[33] O=C(Nc1ccc(OC(F)F)c(Cl)c1)Nc1ccc2c(c1)OCO2
  A = 18% | B = ? | C = -25% | D = 1% | E = -1% | F = 3%
[38] O=C(Nc1ccc(F)cc1)c1cccc(N2C(=O)C3C4C=CC(C4)C3C2=O)c1 (stereo not given)
  A = -6% | B = -21% | C = -6% | D = 0% | E = 0% | F = -1%

Screening data (PubChem)
